Patent US10898567B2, “Synthetic long peptides (SLP) for therapeutic vaccination against Hepatitis B virus infection” (priority 2014, dated 2021)

System: PBMC derived from HBV-immune donors
Assay type: cell-based, human
Conditions: six HBV-immune donors; PBMC pre-stimulated with 3 nmol/ml peptide for 72 hours
Procedure: To detect antigen-specific IFNγ-producing human T cells, the PBMC were first pre-stimulated with 3 nmol/ml of the indicated peptide for 72 hours at 37° C. […] After stimulation of the PBMC, the coating antibody was aspirated from the plate, and washed 4 times with PBS. To block aspecific binding, 100 μl of IMDM containing 8% FCS was added to all wells and incubated at 37° C. for 1 hour. In the meantime, stimulated PBMC were harvested, centrifuged, resuspended in X-vivo 15 medium (Lonza) and counted. […] The medium in the wells of the PVDF plate was aspirated and 100 μl of each PBMC sample was added to the plate in quadruplicates. The plates were incubated at 37° C. overnight. The next day, the supernatant was discarded and plates are washed 6 times with PBS/Tween20 0.05%. […] Next, plates were washed 6 times using PBS/Tween20 0.05% and 1 μg/ml Extravidin-Alkaline phosphatase (ALP) (Sigma-Aldrich) was added to all wells (100 μl/well) in PBS with 1% FBS. The plates were incubated for 1 hour at RT. ALP substrate solution BCIP/NBT-plus (Mabtech) was prepared and 100 μl/well was added to all wells after the plates were washed 4 times with PBS/Tween20 0.05%. To terminate the colorimetric reaction (after 1-20 minutes), tap water was used to wash the plates extensively. After drying, the formed spots were measured on a Biosys Bioreader 5000. […]

Sequence: MENITSGFLGPLLVLQAGFFLLTRILTIPQSLDSWW [SLP30]
- average SI of the IFNγ-responses: 1.49
